Assay results: patent US8071760B2, “Boron-containing porphyrin compounds and their uses” (Board of Supervisors of Louisiana State University and …, priority 2005, dated 2011)

Tested on: BALB/c mice
Test: Animal toxicity (clinical signs, serum chemistry, histopathology)
Details: for AP / BUN / Bilirubin / Globulin / Glucose / Total Prot. / ALT / AST: serum, blood 48 h after administration, group mean; for ALT / AST: in U/L (unit assumed)
Method: Twelve groups of two BALB/c mice each, 4-6 weeks of age and weighing 12-24 g (mean=19 g), were used for toxicity studies. There were 8 female and 16 male mice. Mice in groups 1, 3, 5, 7, and 9 were administered TBP 19 once via i.p. injection, at increasing dosages: group 1 (20 mg/kg of a 2 mg/ml solution), group 3 (40 mg/kg of a 2 mg/ml solution), group 5 (80 mg/kg of a 4 mg/ml solution), group 7 (120 mg/kg of a 4 mg/ml solution), and group 9 (160 mg/kg of a 4 mg/ml solution). Mice in groups 2, 4, 6, 8, and 10 were administered porphyrin 20 once via i.p. injection at increasing dosages: group 2 (20 mg/kg of a 2 mg/ml solution), group 4 (40 mg/kg of a 2 mg/ml solution), group 6 (80 mg/kg of a 4 mg/ml solution), group 8 (120 mg/kg of a 4 mg/ml solution), and group 10 (160 mg/kg of a 4 mg/ml solution). Two groups of mice served as vehicle controls. Mice in group 11 received sterile 4% Cremophor EL (Fluka) in PBS and served as controls for mice receiving 20, 40, and 80 mg/kg compound; while mice in group 12 received 6% Cremophor EL and served as controls for mice receiving 120 and 160 mg/kg compound.
For each compound, groups were dosed sequentially and each group was evaluated daily for signs of toxicity, including hunched posture, rough hair coat, and decreased responsiveness. Mice were anesthetized with CO2 48 h after compound administration, and blood was collected by cardiocentesis for clinical chemistry evaluation. Serum chemistry was analyzed, including glucose, aspartate aminotransferase (AST), alanine aminotransferase (ALT), alkaline phosphatase (AP), bilirubin, total protein (TP), albumin, globulin, and blood urea nitrogen (BUN). The mice were exsanguinated and necropsies were performed. Tissues, including lung, kidney, thymus, heart, Harderian gland, spleen, stomach, small intestine and colon were fixed in 10% neutral buffered formalin. The fixed tissues were processed and examined by a board-certified pathologist.

[1] = BALB/c mice, 20 mg/kg single i.p. injection
[2] = BALB/c mice, 40 mg/kg single i.p. injection
[3] = BALB/c mice, 80 mg/kg single i.p. injection
[4] = BALB/c mice, 120 mg/kg single i.p. injection
[5] = BALB/c mice, 160 mg/kg single i.p. injection

tetra(nido-carboranylphenyl)porphyrin [Compound 20, reference compound]
toxicity to BALB/c mice (160 mg/kg, single i.p. injection, 4 mg/mL, listed as porphyrin 20): non-toxicity; also recorded: non-toxic
signs of toxicity (BALB/c mice, 20-160 mg/kg single i.p. injection, daily evaluation): No signs of toxicity
serum chemistry changes attributable to compound (BALB/c mice, i.p., maximum 160 mg/kg): No serum chemistry changes were observed
clinical, biochemical, or histopathological effects attributable to administration (BALB/c mice, single i.p. injection up to 160 mg/kg): No clinical, biochemical, or histopathological effects were observed
toxicity compared with other negatively charged carboranyl-containing porphyrins (BOPP, MnBOPP, BTPP, NiNTCP-H, ZnDPE, NiDPE) (mice, preliminary results): significantly less toxic
AP [1]: 167.5^a
BUN [1]: 26.5 mg/dL
Bilirubin [1]: 0.2 mg/dL
Globulin [1]: 1.6^a
Glucose [1]: 159.5^a
Total Prot. [1]: 4.3^a
ALT [1]: 98.5
AST [1]: 146.0
AP [2]: 132.0^a,c
BUN [2]: 24 mg/dL
Bilirubin [2]: 0.25 mg/dL
Globulin [2]: 2.0^b
Glucose [2]: 188.0^b
Total Prot. [2]: 4.6^a,b
ALT [2]: 94.0
AST [2]: 202.0
AP [3]: 148.0^a,c
BUN [3]: 27.5 mg/dL
Bilirubin [3]: 0.25 mg/dL
Globulin [3]: 2.35^c
Glucose [3]: 153.5^a
Total Prot. [3]: 5.0^b
ALT [3]: 340.0
AST [3]: 258.0
AP [4]: 160.5^a
BUN [4]: 16.0^a
Bilirubin [4]: 0.25 mg/dL
Globulin [4]: 2.4^a
Total Prot. [4]: 4.9 g/dL
ALT [4]: 968.0
AST [4]: 774.0
Glucose (BALB/c mice, 120 mg/kg single i.p. injection, in mg/dL (unit assumed)): 239.5
AP [5]: 223.0^b
BUN [5]: 25.5^a,b
Bilirubin [5]: 0.25 mg/dL
Globulin [5]: 2.0^b
Total Prot. [5]: 4.5 g/dL
ALT [5]: 1096.0
AST [5]: 981.0
Glucose (BALB/c mice, 160 mg/kg single i.p. injection, in mg/dL (unit assumed)): 214.5

“Also recorded” adds a separate entry of the source. Marks after values point to notes of the source that are not given here.
